# Ab-14 heavy chain CDR variants: yeast mating affinities

Source: Li et al. 2023 (doi:10.1038/s41467-023-39022-2), MIT Lincoln Laboratory and A-Alpha Bio; data file from the FLAb repository.

The target is the same throughout: PDVDLGDISGINAS, from the HR2 region of SARS-CoV-2 spike.

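The parent was found by panning a naive human phage display library on the peptide. These sequences belong to a second round, designed from the earlier measurements on random variants of the parent. Several design methods are mixed in this list. In AlphaSeq, yeast of one mating type display the scFv and yeast of the other type display the target. After mating in shaken culture at 30 °C for 16 h, diploids were selected and their barcode pairs sequenced. Scores were corrected for input abundance and mapped to Kd with protein pairs of known affinity run in the same pool. Mating was done six times.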

Ab-14 is the parent antibody, in scFv form: VH, then three GGGGS repeats, then VL. The light chain is unchanged in all variants.
VH: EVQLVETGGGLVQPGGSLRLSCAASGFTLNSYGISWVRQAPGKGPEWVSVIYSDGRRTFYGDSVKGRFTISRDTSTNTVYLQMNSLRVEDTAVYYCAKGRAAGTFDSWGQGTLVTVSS
VL: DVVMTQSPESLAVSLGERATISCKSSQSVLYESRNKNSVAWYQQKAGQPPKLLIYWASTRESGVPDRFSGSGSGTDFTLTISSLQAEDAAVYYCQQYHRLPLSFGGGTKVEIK

Variants are written as CDR1, CDR2 and CDR3 of the heavy chain (limits as in the source). Parent: GFTLNSYGIS, VIYSDGRRTFYGDSVK, GRAAGTFDS. Numbers give log10(Kd / nM), so 0 is 1 nM and 3 is 1 µM. Smaller is tighter. The mean shown is taken over the replicates in which the pair was detected. "not detected" means that the variant was in the library but no mating with the target was seen in any replicate; the authors take this as a sign of poor binding, and no number exists. The authors averaged sequences with at least three values out of six and counted those with two or fewer as poor binders.

CDR-H1 | CDR-H2 | CDR-H3 | log10 Kd (nM), mean | detected | signal with controls
GFNLNEYGIS | VIYADGRRTFYADSVK | GQAAGTFDV | -0.10 | 6 of 6 | 0 of 18
GFDLNEYGIS | VIYADGQRTFYIDSVK | GENAGTFDV | -0.05 | 6 of 6 | 0 of 18
GFSLNEYGIS | VIYSDGRRTFYADSVK | GRAAGKFDS | not detected | 0 of 6 | 0 of 18
GFDLNEYGIS | VIYADGRRTFYADSVK | GGNAGTFDQ | -0.62 | 6 of 6 | 1 of 18
GFTLNEYAIS | VIYSDGRRTFYGDSVK | LRAAVTFDQ | not detected | 0 of 6 | 0 of 18
GFTLNSYGIS | VIYSDGRRTFYQDFVK | GRAAGTFDS | not detected | 0 of 6 | 0 of 18
GFDLNEYGIS | VIYADGKRTAYANSVK | GETAGTFDV | -0.42 | 6 of 6 | 0 of 18
GFGLDEYGIS | VIYADGRRTGYQDSFK | GANNFFVKM | not detected | 0 of 6 | 0 of 18
GFTLNEYGIS | VIYSDGRRTFYGDDVK | GRTAGTFDT | -0.23 | 6 of 6 | 0 of 18
GFDINEYGIS | VIYADGMRQAYAQNVK | GVHVCWVVI | -0.31 | 6 of 6 | 0 of 18
GFTLNSYGIS | VIYSDGRRTIYQDSVV | GRAAGTFDS | not detected | 0 of 6 | 0 of 18
GFTLDSYGIS | VIHSDGRRTRYGDSVK | GRCAGTALS | not detected | 0 of 6 | 0 of 18
GFTLKSYGIS | VIYSDGRRTFYSDSVK | GQAGGTFDS | 1.12 | 5 of 6 | 0 of 18
GFTLNSYGIS | VIYSDGRRTAYIDSVK | GQWAVQFDS | not detected | 0 of 6 | 0 of 18
GFDLNSYGIS | VIYSDGRRTFYGDEVK | GRTAGTFDE | -0.15 | 6 of 6 | 0 of 18
GFSLNSYGIS | VIYSDGRRTFYADNVK | GNAAGTFDS | 0.33 | 5 of 6 | 0 of 18
GFDLQEYGVS | VIYADGRRAQYASKFK | GNHSGYFDK | not detected | 0 of 6 | 0 of 18
GFDLEDYGIS | VIYADGRRTFYADSVK | GEIAGTFDL | 0.44 | 6 of 6 | 1 of 18
GFNLDEYGIS | VIYADGMRRAYVDEVK | GSHSDVQNM | not detected | 0 of 6 | 1 of 18
GFTLNEYGIS | VIYSDGRRTFYSDSVK | GRAAVTFDS | not detected | 0 of 6 | 1 of 18
GFDLNEYGIS | VIYADGMRTYYADSVK | GSNAGTFDV | -0.18 | 6 of 6 | 1 of 18
GFDLDEYGIS | VIYADGRRTAYADSVK | GETAGTFDI | -0.30 | 6 of 6 | 0 of 18
GDDLEAYGIS | VIYADGMRTYYDDAVK | GKVNGTFTD | not detected | 0 of 6 | 0 of 18
GYDLNEYGIS | VIYADGQRTSYVQSVK | GAGDITGLV | 3.86 | 2 of 6 | 1 of 18
GFDLNEYGIS | VIYADGIRTAYADDVK | GEVAGTFDV | -0.61 | 6 of 6 | 0 of 18
GFTLNSYGIS | VIYADGRRTFYSDSVK | GRAAGTFDS | -0.18 | 12 of 12 | 0 of 36
GHTLLQYGIS | VIYSSGRFTFYSDSVK | GRAAGFFDS | not detected | 0 of 6 | 0 of 18
GFDLNEYGIS | VIYADGMRTAYIDSVK | GEVAGTFDT | -0.61 | 6 of 6 | 0 of 18
GFDLNEYGIS | VIYADGMRTAYSDNVK | GETAGTFDL | 0.10 | 6 of 6 | 0 of 18
GFTLNSYGIS | VIYSDGIRTFYGDSVK | GRNIGTFDS | not detected | 0 of 6 | 0 of 18
GFTLNSYGIS | VIYSDGRRTFYGDSVK | GQAAGTFDS | 0.27 | 1 of 6 | 0 of 18
GFDLDQYGIS | VIYADGRRTQYADDVK | GKYAGSMLS | not detected | 0 of 6 | 0 of 18
GFDISEYGIS | VIYADGKKTQFKNTVK | GELGGTFNV | 1.68 | 1 of 6 | 0 of 18
GFDLNEYGIS | VIYADGARTAYADSVK | GNVAGTFDV | -0.69 | 6 of 6 | 0 of 18
GFTLNSYGIS | VIYSDGHRTFYGDHVK | GRAAGTFDS | 1.07 | 4 of 6 | 0 of 18
GFTLNSYGIS | VIYSDGRRTIYTDSVK | GRAAGTFDS | 2.11 | 1 of 6 | 0 of 18
GFSLNSYGIS | VIYSDGRRTFYGNSVK | GNFAGTFDS | 1.43 | 2 of 6 | 0 of 18

Continued, with the values leading:

log10 Kd (nM), mean | detected | signal with controls | CDR-H1 | CDR-H2 | CDR-H3
not detected | 0 of 6 | 0 of 18 | GFTLNSYGIS | VIYSDGRRTFYGDKVA | GRAAGTFDS
0.20 | 6 of 6 | 0 of 18 | GFDLNEYGIS | VIYADGKRSYYADSVK | GNVAGTFDV
-0.36 | 5 of 6 | 0 of 18 | GKTLNSYGIS | VIYADGKRTFYGDSVK | GRAAGTFDS
1.69 | 6 of 6 | 0 of 18 | GFVLNDYGIS | VIYSDGRRTFYQDSVK | GRAAGTFDS
-0.34 | 6 of 6 | 0 of 18 | GFSLNEYGIS | VIYSDGRRTFYGDSVK | GEAAGTFDK
-0.68 | 6 of 6 | 0 of 18 | GFDLNEYGIS | VIYADGQRSAYADSVK | GNVAGTFDV
not detected | 0 of 6 | 1 of 18 | GDNLDEYGIS | VIYADGQRTAYDDPVK | GGQTGHVMV
0.13 | 3 of 6 | 0 of 18 | GFELNSYGIS | VIYSDGRRTSYQDSVK | GRAAGTFDS
0.14 | 6 of 6 | 0 of 18 | GFQLNEYGIS | VIYSDGRRTFYADSVK | GKAAGTFDK
-0.64 | 6 of 6 | 0 of 18 | GFNLNEYGIS | VIYADGKRTFYADSVK | GQVAGTFDM
not detected | 0 of 6 | 1 of 18 | GQDINEYGIS | VIYADGMRKAYVQQVK | GQNLGDVEV
0.21 | 6 of 6 | 0 of 18 | GFTLNSYGIS | VIYSDGQRTFYSDSVK | GREAGTFDS
-0.71 | 6 of 6 | 0 of 18 | GFDLNEYGIS | VIYADGKRTFYADSVK | GQIAGTFDS
-0.54 | 6 of 6 | 1 of 18 | GFNLDEYGIS | VIYADGKRTAYADSVK | GQVAGTFDV
not detected | 0 of 6 | 0 of 18 | GFTLNDHGIS | VIFSEGRRTQYIDSVK | GRAAGTFDS
0.47 | 6 of 6 | 2 of 18 | GFTLNQYGVS | VIYADGRRTMYGDSVK | GRAAGSFDS
not detected | 0 of 6 | 0 of 18 | GWTLNSYGIS | VIYSDARRTFYDDSVK | GQLAGTFDS
not detected | 0 of 6 | 1 of 18 | GFTLNSYGIS | VIYSDGMRTFYGDSVK | GRKDGTFDS
0.50 | 6 of 6 | 0 of 18 | GFDLNSYGIS | VIYSDGRRTFYQDSVK | GQTAGTFDS
not detected | 0 of 6 | 0 of 18 | GYDMEDYGIS | VIYADGSRQFYHDNFK | GQLAGTFVM
0.83 | 2 of 6 | 0 of 18 | FFTLESYGIS | VIYADGRRTFYGDSVK | GRAAGTFDS
not detected | 0 of 6 | 0 of 18 | GFELQEYGIS | VIYADGARTAYSDNVK | GDAVGIFHV
0.93 | 2 of 6 | 0 of 18 | GFTLNSYGIS | VIYSDGRRTFYKDSVK | GRAAGTFPS
0.77 | 5 of 6 | 0 of 18 | GFELNSYGIS | VIYSDGRRTFYSDSVK | GKQAGTFDS
0.78 | 6 of 6 | 0 of 18 | GFELNSYGIS | VIYSDGRRTFYGDQVK | GQTAGTFDS
not detected | 0 of 6 | 0 of 18 | GESLDSYGIS | VIYADGMRTSYDNSVK | GVWAGTFDE
-0.60 | 6 of 6 | 0 of 18 | GFDLNEYGIS | VIYADGKRTFYSDSVK | GNVAGTFDK
-0.11 | 6 of 6 | 1 of 18 | GFELNSYGIS | VIYSDGKRTFYADQVK | GRTAGTFDS
0.43 | 6 of 6 | 0 of 18 | GFSLNDYGIS | VIYSDGRRTFYGDKVK | GRTAGTFDS
-0.08 | 6 of 6 | 0 of 18 | GFDLDEYGIS | VIYADGMRTVYADSVK | GNQAGTFDI
0.27 | 6 of 6 | 0 of 18 | YFSLNEYGIS | VIYSDGRRTFYGDSVK | GRTAGTFDS
1.72 | 1 of 6 | 1 of 18 | GEDLMEYGIS | VIYADGVRFSYIDDVK | GNSTGFLDV
0.21 | 6 of 6 | 0 of 18 | GFSLNSYGIS | VIYSDGRRTFYDDSVK | GRNAGTFDS
not detected | 0 of 6 | 0 of 18 | GFDLNSYGIS | VIYSDGRRTFYGDSVK | GRAAGHFFS
1.43 | 6 of 6 | 0 of 18 | GFYLNSYGIS | VIYSDGRRTFYDDSVK | GHLAGTFDS
0.71 | 6 of 6 | 0 of 18 | GFDLESYGIS | VIYADGSRTAYADSVK | GNVAGTFNM
2.28 | 6 of 6 | 0 of 18 | GFTLNSYGIS | VIYSDGRRTFYSDRVK | GQAAGTFDT

Again, the first 9 entries without any signal:

| CDR-H1 | CDR-H2 | CDR-H3 | log10 Kd (nM), mean | detected | signal with controls |
|---|---|---|---|---|---|
| GFSLNEYGIS | VIYSDGRRTFYADSVK | GRAAGKFDS | not detected | 0 of 6 | 0 of 18 |
| GFTLNEYAIS | VIYSDGRRTFYGDSVK | LRAAVTFDQ | not detected | 0 of 6 | 0 of 18 |
| GFTLNSYGIS | VIYSDGRRTFYQDFVK | GRAAGTFDS | not detected | 0 of 6 | 0 of 18 |
| GFGLDEYGIS | VIYADGRRTGYQDSFK | GANNFFVKM | not detected | 0 of 6 | 0 of 18 |
| GFTLNSYGIS | VIYSDGRRTIYQDSVV | GRAAGTFDS | not detected | 0 of 6 | 0 of 18 |
| GFTLDSYGIS | VIHSDGRRTRYGDSVK | GRCAGTALS | not detected | 0 of 6 | 0 of 18 |
| GFTLNSYGIS | VIYSDGRRTAYIDSVK | GQWAVQFDS | not detected | 0 of 6 | 0 of 18 |
| GFDLQEYGVS | VIYADGRRAQYASKFK | GNHSGYFDK | not detected | 0 of 6 | 0 of 18 |
| GFNLDEYGIS | VIYADGMRRAYVDEVK | GSHSDVQNM | not detected | 0 of 6 | 1 of 18 |

Values of this round are not directly comparable with the first-round values of the same sequences. Empty control strains, which show no peptide, gave a signal in 1% of pairings with all heavy chain designs; the median was 2.08 and 95% of these signals were weaker than 0.84. No background was subtracted. For each scFv, signals with the empty controls are counted beside the result. Where one sequence has several entries in the source, the replicates are pooled.